Broadly, the IC50 is the concentration that gives 50% inhibition. High values mean weaker potency in that assay, low ones greater potency in that assay.

Protein sequences, listed by entry. Tags and fused reporters are not part of them.
UniProt P05181, whole entry: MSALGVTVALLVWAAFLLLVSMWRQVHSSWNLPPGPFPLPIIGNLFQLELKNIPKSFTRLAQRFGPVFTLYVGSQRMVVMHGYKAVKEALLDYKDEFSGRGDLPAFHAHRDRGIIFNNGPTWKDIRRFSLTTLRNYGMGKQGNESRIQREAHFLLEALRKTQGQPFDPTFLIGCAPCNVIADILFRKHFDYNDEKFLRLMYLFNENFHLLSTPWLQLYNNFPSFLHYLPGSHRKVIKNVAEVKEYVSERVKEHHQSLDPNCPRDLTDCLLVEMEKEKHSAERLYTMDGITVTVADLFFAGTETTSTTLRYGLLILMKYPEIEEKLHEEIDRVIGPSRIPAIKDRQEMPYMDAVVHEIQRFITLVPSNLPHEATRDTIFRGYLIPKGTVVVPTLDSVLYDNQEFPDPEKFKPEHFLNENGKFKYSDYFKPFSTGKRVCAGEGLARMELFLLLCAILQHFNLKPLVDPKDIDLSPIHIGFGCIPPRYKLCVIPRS

This data set has as its target CYP2E1 (Homo sapiens, UniProt P05181).

`CCN(CC)C(=S)S` displayed an IC50 of 400 nM. In other words, the sub-micromolar range.

The record behind these values is patent publication US11319337B2, “3-desoxy derivative and pharmaceutical compositions thereof” (Intercept Pharmaceuticals, Inc., priority 2016, dated 2022).
